IC50 data for 1 molecule are collected here from ChEMBL document CHEMBL1147123, “Lipoxygenase inhibitory constituents of the fruits of noni (Morinda citrifolia) collected in Tahiti” (J Nat Prod, 2007).

The target of this experiment is T1, Polyunsaturated fatty acid lipoxygenase ALOX15 (Oryctolagus cuniculus, UniProt P12530).
T1 sequence (P12530 whole entry): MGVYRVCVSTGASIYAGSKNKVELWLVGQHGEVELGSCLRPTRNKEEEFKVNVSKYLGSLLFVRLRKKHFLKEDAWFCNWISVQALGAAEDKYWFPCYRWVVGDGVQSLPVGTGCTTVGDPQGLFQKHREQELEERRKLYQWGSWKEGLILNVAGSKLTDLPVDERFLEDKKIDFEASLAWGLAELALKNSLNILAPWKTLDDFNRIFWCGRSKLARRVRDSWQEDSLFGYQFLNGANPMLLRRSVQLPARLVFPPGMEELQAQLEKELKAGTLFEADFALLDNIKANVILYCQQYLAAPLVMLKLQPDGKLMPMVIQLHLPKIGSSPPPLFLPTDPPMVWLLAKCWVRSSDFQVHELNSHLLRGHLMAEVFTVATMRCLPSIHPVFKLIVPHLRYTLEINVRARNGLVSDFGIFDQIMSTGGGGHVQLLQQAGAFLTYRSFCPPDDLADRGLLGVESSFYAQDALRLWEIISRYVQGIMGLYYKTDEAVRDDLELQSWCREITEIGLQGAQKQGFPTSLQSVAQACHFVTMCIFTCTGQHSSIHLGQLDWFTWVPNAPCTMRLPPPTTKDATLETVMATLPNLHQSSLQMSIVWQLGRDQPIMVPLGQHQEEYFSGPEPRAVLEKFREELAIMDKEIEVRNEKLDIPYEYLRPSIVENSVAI
The experiment can be described thus: Inhibition of 15LOX in rabbit reticulocytes by spectrophotometric assay.

The molecule `c1ccc2c(c1)SCc1c-2[nH]c2ccccc12` returned an IC50 of 1.12 µM.
